Laboratory results reported in patent publication US20070027118A1 (priority 2005, published 2007).

Sequences of proteins named here, by UniProt entry; tags and fusion partners are left off.
UniProt P28845, whole entry, species assumed: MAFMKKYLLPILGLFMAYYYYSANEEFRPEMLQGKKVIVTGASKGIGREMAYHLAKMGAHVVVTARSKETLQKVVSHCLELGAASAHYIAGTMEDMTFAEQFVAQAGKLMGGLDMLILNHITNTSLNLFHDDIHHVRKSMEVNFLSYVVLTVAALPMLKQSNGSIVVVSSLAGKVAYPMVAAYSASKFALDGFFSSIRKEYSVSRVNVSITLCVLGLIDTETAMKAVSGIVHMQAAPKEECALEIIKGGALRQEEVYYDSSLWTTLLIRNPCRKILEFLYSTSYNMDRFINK

How the values were obtained:
[1] = molecular target: T1, 11β-hsd-1 enzyme (Homo sapiens, UniProt P28845); assay: biochemical
Experimental: The 11β-hsd-1 assay was performed in a 100 mM Triethanolamine buffer pH 8.0, containing 200 mM NaCl, 0.02% n-dodecyl β-D-maltoside, 5% glycerol, 5 mM β-mercaptoethanol. A typical reaction for the determination of Kiapp values was carried at R.T. in a Corning® u-bottom 96-well plate and is described as follows: 11β-hsd-1 enzyme (5 nM, final concentration) was pre-incubated in the presence of the inhibitor and NADPH (500 μM, final concentration) for at least 30 minutes in the assay buffer. When pre-incubation was completed, the reaction was initiated by adding the regenerating system (2 mM Glucose-6-Phosphate, 1U/mL Glucose-6-Phosphate dehydrogenase, and 6 mM MgCl2, all the concentration reported are final in the assay buffer), and 3H-cortisone (200 nM, final concentration). After 60 minutes, 60 μL of the assay mixture was transferred to a second 96-well plate and mixed with an equal volume of dimethylsulfoxide to stop the reaction. […]
The initial reaction velocities were measured by stopping the reaction at 60 min and by measuring the area of product formation in the absence and the presence of various concentrations of inhibitors. The Kiapp values were determined using the equation for tight-binding inhibitor developed by Morrison, J. F. (Morrison J. F. Biochim BiophysActa. 1969; 185: 269-86). […]

[2] = molecular target: T1, 11β-hsd-1 enzyme; assay: biochemical; conditions: read-out: % Inh @ 0.1 μM
Experimental: Percentage of inhibition was determined in a 100 mM Triethanolamine buffer, pH 8.0, 200 mM NaCl, 0.02% n-dodecyl β-D-maltoside and 5 mM β-ME. A typical reaction was carried on a Corning® u-bottom 96-well plate and is described as follows: 11β-hsd-1 enzyme (5 nM, final concentration) was pre-incubated in the presence of the inhibitor and NADPH (500 μM, final concentration) for at least 30 minutes
in the assay buffer. When pre-incubation was completed, the reaction was initiated by adding the regenerating system (2 mM Glucose-6-Phosphate, 1U/mL Glucose-6-Phosphate dehydrogenase, and 6 mM MgCl2, all the concentration reported are final in the assay buffer), and 3H-cortisone (200 nM, final concentration). After 60 minutes, 60 μL of the assay mixture was transferred to a second 96-well plate and mixed with an equal volume of dimethylsulfoxide to stop the reaction. A 15 μL aliquot from the reaction mixture was loaded into a C-18 column (Polaris C18-A, 50×4.6 mm, 5 μ, 180 Angstrom from Varian) connected to an automated High-throughput Liquid Chromatography instrument developed by Cohesive Technologies Inc of Franklin, Mass., with a […] model 3 Radio-HPLC detector from IN/US of Tampa, Fla. […]
Percent Inhibition was calculated based on the following equation: (1-(3H-Cortisol peak area in the […] of inhibitor)×100).

Row | Ki [1] | inhibition at 0.1 µM [2] | Compound
1 | 17.4 nM | 100% | Cc1cccc(NS(=O)(=O)N2CCN(c3ccc(C#N)cn3)CC2)n1 [Example 2, 4-(5-cyanopyridin-2-yl)-N-(6-methylpyridin-2-yl)piperazine-1-sulfonamide]
2 | 2.2 nM | 96.9% | N#Cc1ccc(N2CCN(S(=O)(=O)Nc3cccc(N)n3)CC2)nc1 [Example 19, N-(6-aminopyridin-2-yl)-4-(5-cyanopyridin-2-yl)piperazine-1-sulfonamide]
